{
  "source": "paper PMC7221417",
  "about": "(European journal of medicinal chemistry, 2020)",
  "test": "Qualitative solubility in water and organic solvents",
  "format": "physicochemical",
  "data": [
    {"smiles": "C1=CCCC=CCC1.CC(C)(C#N)c1cc(Cn2cncn2)cc(C(C)(C)C#N)c1.CC(C)(C#N)c1cc(Cn2cncn2)cc(C(C)(C)C#N)c1.[Cl-].[Cl-].[Ru+2]", "note": "[Complex 1, RuCOD(ATZ)2Cl2]", "values": [
      {"measurement": "solubility in organic solvents (qualitative)", "value": "soluble in acetone, alcohols and dimethyl sulfoxide (DMSO)"},
      {"measurement": "solubility in water (qualitative)", "value": "poorly soluble in water"}
    ]}
  ]
}
